# Data: publication PMC8869358, “High-Throughput Chemical Screening and Structure-Based Models to Predict hERG Inhibition” (Biology, 2022)
# By UniProt entry, the sequences of proteins in these tests, tags left out. Where a name states a change or a piece, a line headed by the entry shows the natural chain unless it says otherwise.
# UniProt Q12809: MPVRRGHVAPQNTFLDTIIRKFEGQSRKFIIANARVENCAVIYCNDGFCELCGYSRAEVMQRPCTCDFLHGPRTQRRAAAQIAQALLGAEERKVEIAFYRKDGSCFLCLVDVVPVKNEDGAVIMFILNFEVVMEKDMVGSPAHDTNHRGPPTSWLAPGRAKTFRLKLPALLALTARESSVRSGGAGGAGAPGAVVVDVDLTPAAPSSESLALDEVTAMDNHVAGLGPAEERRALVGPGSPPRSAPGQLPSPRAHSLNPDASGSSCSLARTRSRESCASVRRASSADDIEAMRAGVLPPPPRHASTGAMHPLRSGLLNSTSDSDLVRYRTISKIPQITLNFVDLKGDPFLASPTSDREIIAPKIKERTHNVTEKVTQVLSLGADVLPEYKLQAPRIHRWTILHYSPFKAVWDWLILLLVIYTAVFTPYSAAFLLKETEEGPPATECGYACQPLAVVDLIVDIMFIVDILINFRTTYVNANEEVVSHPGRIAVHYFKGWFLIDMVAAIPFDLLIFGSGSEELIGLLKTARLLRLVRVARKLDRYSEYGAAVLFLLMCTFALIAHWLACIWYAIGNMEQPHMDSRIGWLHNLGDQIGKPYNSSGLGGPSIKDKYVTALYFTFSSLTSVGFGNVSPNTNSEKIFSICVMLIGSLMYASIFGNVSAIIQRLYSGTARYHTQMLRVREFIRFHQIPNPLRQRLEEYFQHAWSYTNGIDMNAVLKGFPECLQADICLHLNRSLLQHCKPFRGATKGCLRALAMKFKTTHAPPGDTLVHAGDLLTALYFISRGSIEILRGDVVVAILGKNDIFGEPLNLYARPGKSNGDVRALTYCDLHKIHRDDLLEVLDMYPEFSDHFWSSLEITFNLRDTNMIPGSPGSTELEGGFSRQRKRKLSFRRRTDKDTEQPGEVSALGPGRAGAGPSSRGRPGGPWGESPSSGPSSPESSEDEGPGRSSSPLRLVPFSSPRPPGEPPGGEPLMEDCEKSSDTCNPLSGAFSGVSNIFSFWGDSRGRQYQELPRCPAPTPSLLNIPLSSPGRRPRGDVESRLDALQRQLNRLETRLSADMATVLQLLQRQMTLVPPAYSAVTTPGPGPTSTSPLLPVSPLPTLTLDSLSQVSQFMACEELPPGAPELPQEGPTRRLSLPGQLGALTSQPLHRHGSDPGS
# Like-named read-outs stand apart in the source and are kept apart here.
# Molecular target: hERG (Homo sapiens, UniProt Q12809)
# Conditions: inhibitor
substance,measurement,setting,value
Spiradoline,"(-LOG10(IC50), µM)",,4.655 M
Bensulide,"(-LOG10(IC50), µM)","human, fluxor ii thallium influx herg",4.385 M
